Columns and labels:
[1] = target: bovine beta-2 adrenoceptor (Bos taurus, UniProt Q28044); experiment: cAMP assay in CHO cells transfected with the bovine beta-2 adrenoceptor (DiscoveRx Hit Hunter cAMP II); settings: read-out: Bovine EC50, CHO cells transfected with bovine beta-2 adrenoceptor, 30 minutes incubation with compound, tested form: pair of enantiomers (racemate of the 4e)
Description: (§1) CHO cells transfected with the bovine or porcine beta-2 adrenceptors were maintained in culture in DMEM/HAMS F12+10% FBS+2 mM glutamine+500 μg/ml geneticin (for the porcine receptor the medium was supplement with 1.5 mM HEPES) at 37° C. with a 5% CO2 atmosphere.
(§2) Cells were plated into 96 well viewplates in medium and incubated overnight at 37° C. with a 5% CO2 atmosphere. The cells were pre-incubated with 0.5 mM IBMX in PBS for 30 minutes prior to incubation with increasing concentrations of experimental compound (5×10^−12 to 10^−5M) for 30 minutes at 37° C. with a 5% CO2 atmosphere. At the end of the incubation time the compound was removed and the cells assayed for cAMP using the DiscoveRx Hit Hunter cAMP II™ assay kit.
(§3) Duplicate samples were run for each experimental compound and the data generated was analysed using EC50 analysis software in Graphpad Prism.

Sequences of proteins named here, by UniProt entry; tags and fusion partners are left off.
UniProt Q28044, whole entry: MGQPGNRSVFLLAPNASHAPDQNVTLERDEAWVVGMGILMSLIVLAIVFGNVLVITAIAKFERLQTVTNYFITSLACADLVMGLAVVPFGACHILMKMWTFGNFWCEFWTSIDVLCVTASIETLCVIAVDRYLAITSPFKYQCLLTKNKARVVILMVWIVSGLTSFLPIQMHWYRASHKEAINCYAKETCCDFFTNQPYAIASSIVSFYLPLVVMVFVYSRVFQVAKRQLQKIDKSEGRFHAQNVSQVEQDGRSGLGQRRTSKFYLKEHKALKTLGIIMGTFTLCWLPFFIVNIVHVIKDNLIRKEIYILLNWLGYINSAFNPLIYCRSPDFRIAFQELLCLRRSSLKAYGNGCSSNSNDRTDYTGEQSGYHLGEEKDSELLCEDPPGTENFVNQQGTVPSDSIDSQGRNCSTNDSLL
UniProt Q28997, whole entry: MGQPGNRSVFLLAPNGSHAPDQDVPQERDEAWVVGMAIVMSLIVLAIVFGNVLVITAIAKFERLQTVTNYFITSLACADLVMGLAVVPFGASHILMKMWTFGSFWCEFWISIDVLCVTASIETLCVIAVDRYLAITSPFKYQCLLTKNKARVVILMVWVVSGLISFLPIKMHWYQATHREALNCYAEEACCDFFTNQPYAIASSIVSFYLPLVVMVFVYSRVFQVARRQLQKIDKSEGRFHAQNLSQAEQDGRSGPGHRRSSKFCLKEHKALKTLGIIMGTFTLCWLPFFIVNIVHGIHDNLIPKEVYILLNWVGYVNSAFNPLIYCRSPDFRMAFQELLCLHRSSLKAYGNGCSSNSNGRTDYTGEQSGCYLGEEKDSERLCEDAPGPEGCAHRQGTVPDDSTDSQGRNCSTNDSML

[2] = target: porcine beta-2 adrenoceptor (Sus scrofa, UniProt Q28997); experiment: cAMP assay in CHO cells transfected with the porcine beta-2 adrenoceptor (DiscoveRx Hit Hunter cAMP II); settings: read-out: Porcine EC50, CHO cells transfected with porcine beta-2 adrenoceptor, 30 minutes incubation with compound, tested form: pair of enantiomers (racemate of the 4e)
Description: as §1, §2, §3

EC50 [1]: 2.1 nM
EC50 [2]: 3 nM
Structure (SMILES): CC(CCc1c[nH]c2ccccc12)N[C@@H]1CCn2c(=O)[nH]c3cccc(c32)[C@H]1O (single isomer, unassigned)

— patent US20080267942A1, “BENZAZEPIN-2(1H)-ONE DERIVATIVES” (Pfizer Limited, priority 2006, published 2008)
